Measurements reported in US20260184712A1, “Heterocyclic Compounds as ENT Inhibitors and Compounds for Use in the Treatment of Cancers” (iTeos Belgium SA, priority 2022, published 2026).

Sequences of proteins named here, by UniProt entry; tags and fusion partners are left off.
UniProt Q99808, whole entry: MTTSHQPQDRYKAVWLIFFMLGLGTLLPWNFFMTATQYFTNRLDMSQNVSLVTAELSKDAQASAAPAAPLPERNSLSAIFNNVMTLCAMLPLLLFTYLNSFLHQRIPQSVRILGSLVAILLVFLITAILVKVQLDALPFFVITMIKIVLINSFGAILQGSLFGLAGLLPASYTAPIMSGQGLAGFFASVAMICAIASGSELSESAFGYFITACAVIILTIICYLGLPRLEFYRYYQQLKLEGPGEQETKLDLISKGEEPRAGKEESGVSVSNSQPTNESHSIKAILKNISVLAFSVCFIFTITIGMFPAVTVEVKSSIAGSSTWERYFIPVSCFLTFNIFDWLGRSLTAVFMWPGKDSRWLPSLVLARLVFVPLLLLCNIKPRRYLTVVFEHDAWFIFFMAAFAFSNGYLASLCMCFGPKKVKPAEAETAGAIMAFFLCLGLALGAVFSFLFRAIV

Tests used:
human ENT1 = human ENT1 (Homo sapiens, UniProt Q99808); assay: ENT1 binding assay (competition with Sahenta-DY647 on JAR cells); settings: read-out: Binding Assay IC50, IC50 categorized
Procedure: Compounds of the present disclosure were assayed to show ability to bind to human ENT1. The assay is a competition between a compound of interest and Sahenta-DY647, an ENT1 inhibitor that emits fluorescence (Ex=630 nm, Em=670 nm). By measuring the fluorescence at the end of the assay, one can assess the binding potency of the compounds tested. The compounds of the present disclosure were tested and compared to known ENT inhibitors, dilazep and NBMPR:
JAR cells expressing ENT1 were purchased from ATCC® (HTB-144TM). Cells were cultured in RPMI 1640 medium (LONZA®, #BE12-702F/U1) supplemented with 10% FBS (GIBCO®, #10270-106), 10 mM Hepes (LONZA®, #BE17-737E), 1 mM Sodium Pyruvate (LONZA®, #BE13-115E), and 2% Penicillin/Streptomycin (LONZA®, #DE17-603E) at 37° C. and 5% CO2.
The assay was conducted with the following buffer on the day of the assay: HBSS (LONZA®, #LO-527F) supplemented with 10 mM Hepes (LONZA®, #BE17-737E) and 0.1% BSA (Miltenyi®, #130-091-376).
JAR cells were resuspended in the described buffer. The compounds of interest and Sahenta-DY647 were diluted 200× with the described buffer.
A total of 50,000 cells were pre-incubated for 30 min at 4° C. with the compounds of the present disclosure before adding the corresponding amount of Sahenta-DY647 (100 nM) to the minimal concentration at Bmax and incubating for an additional 30 min at 4° C. The total volume of the reaction was 100 μL (50 μL of cells, 25 μL of the compounds of the present disclosure, and 25 μL of Sahenta-DY647) in a U-bottom 96 well plate (Greiner®, #650-180). The plates were washed 2× by centrifugation (4 min, 400 rcf at 4° C.) in the same buffer. Cells were re-suspended in 70 μL of the buffer and 50 μL was transferred to a Black 384 Optiplate (PerkinElmer®, #6007279). Fluorescence (Ex=630 nm, Em=670 nm) was acquired on a Spectramax i3x (Molecular Devices®).
Dose-response data from the compounds were analyzed with Graphpad Prism 9.1.1@software, using nonlinear regression applied to a sigmoidal dose-response model and the following equation:
Y=Bottom+(Top-Bottom)/(1+10^((LogIC50−X)*HillSlope)), with a shared bottom and top between the test reagent and dipyridamole.
Data from multiple experiments were compiled by taking the average pIC50 value for the reagent in question±the standard deviation (s.d.) and expressing it as an average IC50 value in nM.
The inhibitory effect of the test compound was expressed as a percentage of the inhibition of SAHENTA-DY647 binding.

[1] = test system: stimulated primary human T cells; assay: T cell proliferation assay, Condition B (X-VIVO15, 2% HSA and 0.1% AAG); settings: read-out: T Cell proliferation (Condition B) IC50; Condition B: X-VIVO15 medium containing HSA and α1-Acid Glycoprotein; anti-CD3/anti-CD28 beads, ATP, 4 days; CFSE-lo T cells
Procedure: (§1) The goal of this study was to determine the potency of ENT1 inhibitors by measuring the rescued proliferation of stimulated primary human T cells incubated in the presence of 100 uM Adenosine triphosphate (ATP), in baseline conditions (condition A) or in the presence of various proteins known to bind small molecules (condition B).
Condition B: X-VIVO15, 2% Human Serum Albumin (HSA) and 0.1% α-1-Acid Glycoprotein (AAG)
(§2) Venous blood from healthy volunteers, all of whom signed an informed consent approved by the Ethics Committee (FOR—UIC—BV-050-01-01 ICF_HBS_HD Version 5.0), was obtained by ImmuneHealth (Centre Hospitalier Universitaire Tivoli, La Louviere, Belgium). Mononuclear cells were collected by density gradient centrifugation, using SepMate-50 tubes (StemCell Technologies, Grenoble, France) and Lymphoprep (Stemcell Technologies) according to the manufacturer's instructions. CD3+ T cells were isolated by immunomagnetic negative selection, using the EasySep Human T Cell Isolation Kit (StemCell Technologies) as per the manufacturer's instructions. CD3+ T cells were stored in heat inactivated FBS (hiFBS; Gibco, ThermoFisher Scientific, Merelbeke, Belgium) and 10% DMSO in liquid nitrogen.
(§3) Purified human CD3+ T cells were thawed and washed once with RPMI1640 medium, UltraGlutamine (Lonza, Verviers, Belgium) containing 10% hiFBS. Cells were resuspended in PBS containing 10% hiFBS at 1×10^7 cells/ml. One volume of cells was combined with a matching volume of 2 μM CFSE solution in PBS, mixed well by pipetting, and incubated at room temperature for 5 minutes under rotation and protected from light. Excess CFSE was quenched by addition of PBS containing 10% hiFBS, and the cells were centrifuged (300×rcf, 7 minutes) and resuspended in X-VIVO15. Cells were again centrifuged and resuspended in X-VIVO15 for counting.
(§4) Cells were resuspended at 1.6×10^6 cells/mL in X-VIVO15 medium (Condition A) or X-VIVO15 medium containing 4% (v/v) HSA (Sigma-Aldrich, Diegem, Belgium) and 0.2% (v/v) ai-Acid Glycoprotein (Sigma-Aldrich, Diegem, Belgium) (Condition B).
[…] of cell suspension (2×10^4 cells) was added to wells of sterile flat-bottom 384-well plates. […]
(§5) Samples were run on a BD LSR Fortessa FACS machine (BD FACSDiva Software v9.0.1). Data were analyzed using FlowJo (BD, v10.7.1). T cell proliferation was determined by measuring the frequency of ‘CFSE^lo’ (i.e. CFSE-diluted).
(§6) T cell proliferation data were analyzed using FlowJo software (Version 10.6.2). […]
(§7) T cell proliferation was determined based on the percent CFSE^lo total T cells for each condition. […]

[2] = test system: stimulated primary human T cells; assay: T cell proliferation assay, Condition A (X-VIVO15); settings: read-out: T Cell proliferation (Condition A) IC50; Condition A: X-VIVO15 medium; anti-CD3/anti-CD28 beads, ATP, 4 days; CFSE-lo T cells
Procedure: as §1, §2, §3, §4
12.5 mL of cell suspension (2×10^4 cells) was added to wells of sterile flat-bottom 384-well plates. Cells were activated by adding […] of anti-CD3 anti-CD28 coated microbeads (Dynabeads human T-activator CD3/CD28; Life Technologies, Paisley, UK) suspended in X-VIVO15 medium or X-VIVO15 medium containing 4% (v/v) HSA and 0.2% (v/v) ai-Acid Glycoprotein at a ratio of one microbead per two cells. […]
as §5, §6, §7

SMILES | IC50 (human ENT1) | IC50 [1] | IC50 [2]
C[C@H]1O[C@@H](n2cnc3c(NS(=O)(=O)c4ccc([N+](=O)[O-])cc4)ncnc32)[C@H](O)[C@@H]1O | > 500 nM | – | –
C[C@H]1O[C@@H](n2cnc3c2ncn2cc(-c4ccc([N+](=O)[O-])cc4)cc32)[C@H](O)[C@@H]1O | > 500 nM | – | –
CC(CO)Nc1nc2c(OCc3ccc([N+](=O)[O-])cc3)ncnc2n1[C@H]1O[C@H](C)[C@@H](O)[C@H]1O (some centres unmarked) | < 1 nM | – | –
C[C@H]1O[C@H](n2c(NCc3cnn(C)c3)nc3c(OCc4ccc([N+](=O)[O-])cc4)ncnc32)[C@H](O)[C@@H]1O | 1 to 20 nM | 20 to 500 nM | < 1 nM
C[C@H]1O[C@@H](n2nc(C(=O)NC3CCCC3)c3c(OCc4ccc([N+](=O)[O-])cc4)ncnc32)[C@H](O)[C@@H]1O | 20 to 500 nM | – | –
C[C@H]1O[C@@H](n2cnc3c(COc4cc(F)c(C#N)c(F)c4)ncnc32)[C@H](O)[C@@H]1O | > 500 nM | – | –
C[C@H]1O[C@H](n2c(NCc3ccccc3)nc3c(OCc4ccc([N+](=O)[O-])cc4)ncnc32)[C@H](O)[C@@H]1O | 1 to 20 nM | 20 to 500 nM | < 1 nM
OC[C@H]1O[C@@H](n2cnc3c(SCc4ccc(OC(F)F)cc4)ncnc32)[C@H](O)[C@@H]1O | 20 to 500 nM | > 500 nM | 1 to 20 nM
OC[C@H]1O[C@@H](n2cnc3c(NCc4ccccc4)ncnc32)[C@H](O)[C@@H]1O | > 500 nM | – | –
CC(CCO)Nc1nc2c(OCc3ccc([N+](=O)[O-])cc3)ncnc2n1[C@H]1O[C@H](C)[C@@H](O)[C@H]1O (some centres unmarked) | < 1 nM | – | –
C[C@H]1O[C@H](n2c(NCc3cn[nH]c3)nc3c(OCc4ccc([N+](=O)[O-])cc4)ncnc32)[C@H](O)[C@@H]1O | < 1 nM | – | –
C[C@H]1O[C@@H](n2ncc3c(SCc4ccc([N+](=O)[O-])cc4)ncnc32)[C@H](O)[C@@H]1O | 20 to 500 nM | > 500 nM | 1 to 20 nM
